Test system: HIV-1 RF
Experiment: Syncytium-forming assay (Syncytia assay), antiviral activity
Assay type: cell-based
Text: To determine the HIV-1 viral titers the quantitative infectivity syncytium-forming assay described by P.L. Nara and P.J. Fischinger, "Quantitative Infectivity Assay for HIV-1 and -2," Nature, 332: 469 (1988)) was used. In this assay a single infectious unit of virus infects a single cell and initiates a focal cell change such as syncytium formation. Because a single infectious unit causes a single response, a linear relationship exists between the number of cytopathic effects caused by viral infection and the first order of virus concentration. This quantitative assay can be used to determine the titers of the HIV-1 in viral stocks, neutralization tests, and antiviral assays.
The quantitative infectivity syncytium-forming assay is applied for the direct quantitation of fusigenic virus-infected cells. CEM-SS cells were used for the syncytium-forming assay. CEM-SS cell are human T4-lymphoblastoid cells of a cell line initially derived by G.E. Foley, et al., "Continuous Culture to Human Lymphoblasts from Peripheral Blood of a Child with Acute Leukemia," Cancer, 18: 522 (1965) and biologically cloned by Nara et al., supra. The cells for this assay were provided by Dr. Nara.
CEM-SS cells were maintained in a growth medium of RPMI 1640, 10% fetal bovine serum, 1% L-glutamine (200 mM) and 50 µg/ml of gentamicin. CEM-SS cells grow in suspension. The cells have been cloned for both poly-L-lysine-induced adherence to microtiter plates and virus-induced syncytial and fusogenic sensitivity following infection with either cell-free or cell-associated HIV-1 and HIV-2. It has been determined that the cells are negative for virus including human retroviruses as determined by electron microscopy and reverse transcriptase analysis.
A.4.1. Use 96-wells flat bottom tissue culture plates and score the bottoms of all wells into 4 quadrants. A.4.2. Add 50 µl/well of diluted poly-L-lysine. Prepare stock poly-L-lysine (Poly-L-lysine hydrobromide, Sigma catalog, cat. # P-1399) at 5 mg/ml and store at -20°C for future use. For the assay dilute the stock poly-L-lysine 1:100 using phosphate buffered saline (PBS). A.4.3. Incubate plates at room temperature for no less than 30 minutes. A.4.4. Remove poly-L-lysine from wells. A.4.5. Wash the plates with 100 µl/well of Dulbecco's PBS and remove the excess PBS. A.4.6. Dilute CEM-SS cells in a logarithmic state of growth to 0.5 x 10⁶ cells per ml in a serum free medium and add 1 µg/ml polybrene. Incubate the cell suspension at 37°C for 60 minutes. Centrifuge at 800 rpm for 10 minutes and decant the supernatant fluid. A.4.7. Dilute the treated CEM-SS cell suspension to 5.0 x 10⁵ cells. Add 100 µl to the test wells so that the final cell concentration is 50,000 cells per well. Make ten-fold dilutions of the viral stock. Add 50 µl to the test wells. […]

CC1(C)CCC[C@@]2(C)[C@H](c3ccoc3)C(=O)[C@H]3O[C@@]312 (racemic) [PM-92131 (±)]
SI (Table II, Syncytia Assay, listed as PM-92131 (±) (253-48)): 18 | SI (Table II, Syncytia Assay, listed as PM-92131 (±) (289-8)): >42 | SI (Table III, Syncytia Assay (M.O.I. = .005), listed as PM-92131 (±) (253-48)): 21 | SI (Table III, Syncytia Assay (M.O.I. = .005), listed as PM-92131 (±) (289-8)): >42
